This series in a line: Permeation test, enhancing effect on percutaneous absorption in solution system. To be noted: ratio with enhancer / control. Here is the method: A permeation test was carried out based on the following procedure. First, an excised skin (Yucatan miniature swine or hairless mouse) was placed in a vertical diffusion cell in which temperature was kept at 37° C., and a receptor phase was filled with 7 mL of a phosphate-buffered saline (PBS, a pH of 7.5). The whole was left to stand still for one hour. […] Then, the test was started. […] Note that after each of the collections, an equivalent amount of PBS was supplemented into the receptor phase. Each PBS collected from the receptor phase was measured for a drug concentration by an HPLC method. […] Further, the slant of a permeation curve at the time when the permeation rate reached a steady state was used to calculate a skin permeation rate (μg/hr/cm^2).
An enhancing effect on drug permeation was evaluated for the case where a 1% isopropyl myristate solution was used as a control and for the case where 1% each of n-octyl-β-D-thioglucopyranoside and dioctyl sodium sulfosuccinate was added.

Take `CCOC(=O)[C@H](CCc1ccccc1)N[C@@H](C)C(=O)N1[C@H](C(=O)O)C[C@H]2CCCC[C@@H]21` [Trandolapril, trandolapril]: the “Percutaneous absorption enhancing action (Example/Comparative Example), cumulative permeation amount for 24 hours” value came out at 12 times and the “Percutaneous absorption enhancing action (Example/Comparative Example), skin permeation rate” value is given as 54 times.

Values taken from US8771724B2, “Percutaneous absorption enhancer and transdermal preparation using the same” (TOA EIYO Ltd., priority 2008, dated 2014).
